Protein sequences, listed by entry. Tags and fused reporters are not part of them. Lines headed by an entry give the natural chain unless they say otherwise; changes in a name come on top.
UniProt Q06187: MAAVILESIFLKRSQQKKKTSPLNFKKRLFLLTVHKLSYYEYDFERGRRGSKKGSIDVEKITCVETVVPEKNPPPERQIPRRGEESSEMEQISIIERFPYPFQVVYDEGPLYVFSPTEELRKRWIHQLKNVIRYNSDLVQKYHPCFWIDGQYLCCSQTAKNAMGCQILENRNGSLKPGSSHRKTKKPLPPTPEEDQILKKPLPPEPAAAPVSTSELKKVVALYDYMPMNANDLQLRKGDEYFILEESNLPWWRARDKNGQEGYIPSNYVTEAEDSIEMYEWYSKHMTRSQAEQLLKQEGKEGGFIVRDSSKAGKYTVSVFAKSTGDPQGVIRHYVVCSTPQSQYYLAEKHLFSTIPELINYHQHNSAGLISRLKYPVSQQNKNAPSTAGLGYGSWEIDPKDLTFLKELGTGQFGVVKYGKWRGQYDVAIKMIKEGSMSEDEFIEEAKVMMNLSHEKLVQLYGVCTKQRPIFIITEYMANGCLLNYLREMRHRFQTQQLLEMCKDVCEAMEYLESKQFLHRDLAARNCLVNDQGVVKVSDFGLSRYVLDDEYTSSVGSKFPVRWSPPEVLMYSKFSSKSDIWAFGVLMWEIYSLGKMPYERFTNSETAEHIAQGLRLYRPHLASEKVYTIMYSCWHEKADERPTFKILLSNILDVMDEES

According to ChEMBL document CHEMBL3872267, “Design and synthesis of phosphoryl-substituted diphenylpyrimidines (Pho-DPPYs) as potent Bruton's tyrosine kinase (BTK) inhibitors: Targeted treatment of B lymphoblastic leukemia cell lines” (Bioorg Med Chem, 2017):

Target: Tyrosine-protein kinase BTK (Homo sapiens, UniProt Q06187)
Assay: Inhibition of human recombinant full-length N-terminal His-tagged BTK expressed in baculovirus infected Sf9 insect cells measured after 60 mins by ADP-Glo kinase assay

C=CC(=O)Nc1cccc(Nc2nc(Nc3ccc(OCCOC)cc3)ncc2F)c1 [SPEBRUTINIB]
IC50: 0.72 nM
